Results from patent US20250101534A1, “USE OF SPOP MUTATIONS AS A PREDICTIVE BIOMARKER” (Foundation Medicine, Inc., priority 2022, published 2025).

System: metastatic hormone-sensitive prostate cancer (mHSPC)
Conditions: for median OS / median time to CRPC: in combination with ADT; for median time to CRPC: indexed from metastatic diagnosis
[1] = SPOP-mutated vs wild-type SPOP patients, Cox model adjusted for PSA and ECOG
[2] = patients with SPOP mutations, mHSPC

CC(=O)O[C@@]12CO[C@@H]1C[C@H](O)[C@@]1(C)C(=O)[C@H](O)C3=C(C)[C@@H](OC(=O)[C@H](O)[C@@H](NC(=O)OC(C)(C)C)c4ccccc4)C[C@@](O)([C@@H](OC(=O)c4ccccc4)[C@H]21)C3(C)C [docetaxel] was tested, and the “HR, overall survival” value [1] was 1.46, the “adjusted hazard ratio [HR], time to CRPC” value [1] was 0.81 and the “time to CRPC and OS, SPOP-mutated compared with wild-type SPOP patients (in words)” value (mHSPC, FIGS. 2A-2D) was “No significant difference”. For the same compound, the “time to CRPC and OS, TMPRSS2-ERG fusion positive compared with fusion negative patients (in words)” value (mHSPC, FIGS. 3A-3D) was “better time to CRPC and OS”, the “median OS” value [2] was 26.9 months and the “median time to CRPC” value [2] was 18.5 months. For the same compound, the “median OS” value (wild-type SPOP patients, mHSPC) was 33.5 months and the “median time to CRPC” value (wild-type SPOP patients, mHSPC) was 15.7 months.

Like-named read-outs stand apart in the source and are kept apart here.
